# Earlier results in patent publication US7381745B2, “Ligands for metabotropic glutamate receptors and inhibitors of NAALADase” (Georgetown University, priority 1999, dated 2008).
# Sequences of proteins named here, by UniProt entry; tags and fusion partners are left off.
# UniProt P70627, whole entry: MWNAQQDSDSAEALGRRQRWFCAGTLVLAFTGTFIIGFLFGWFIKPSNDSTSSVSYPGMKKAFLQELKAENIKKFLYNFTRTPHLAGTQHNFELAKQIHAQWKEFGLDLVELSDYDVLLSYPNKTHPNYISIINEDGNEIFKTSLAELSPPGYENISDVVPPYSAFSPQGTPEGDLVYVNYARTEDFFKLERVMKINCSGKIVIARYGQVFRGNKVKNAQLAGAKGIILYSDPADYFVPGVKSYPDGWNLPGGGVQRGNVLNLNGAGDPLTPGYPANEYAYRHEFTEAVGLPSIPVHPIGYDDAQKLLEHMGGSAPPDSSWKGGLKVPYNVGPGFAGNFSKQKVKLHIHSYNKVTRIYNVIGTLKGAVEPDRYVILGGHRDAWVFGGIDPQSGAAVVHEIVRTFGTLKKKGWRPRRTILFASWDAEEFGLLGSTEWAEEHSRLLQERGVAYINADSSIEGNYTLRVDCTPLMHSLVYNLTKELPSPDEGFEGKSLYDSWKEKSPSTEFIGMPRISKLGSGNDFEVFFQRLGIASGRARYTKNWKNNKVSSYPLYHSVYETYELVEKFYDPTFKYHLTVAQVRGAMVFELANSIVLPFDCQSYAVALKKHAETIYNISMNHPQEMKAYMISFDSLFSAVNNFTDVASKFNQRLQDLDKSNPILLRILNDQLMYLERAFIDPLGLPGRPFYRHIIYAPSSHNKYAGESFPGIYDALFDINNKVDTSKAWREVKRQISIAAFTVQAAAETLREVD
# Biological target: NAALADase (Rattus norvegicus, UniProt P70627)
# Conditions: reported, J. Med. Chem. 39, 619; cited from earlier work
substance,measurement,value
2-(phosphomethyl)pentanedioic acid [PMPA],NAALADase inhibition (in words),potent inhibitors of NAALADase
